# Compounds with a hit are over-represented: about 0.73% of the library has one in this group of screens.
# RAD52 inh = blocks human RAD52 DNA annealing. P43351. recombinant RAD52 DNA annealing, FRET fluorescence. inhibition, % at 18.7 µM. 360,000 compounds, 0.46% hits. AID 651710;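 active = every replicate showing at least 50% inhibition; inconclusive = mean inhibition at least 50% but not in every replicate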
# Yeast UUG start = alters start codon recognition fidelity in yeast; AID 602363; activity score, % at 18.7 µM; 350,000 tested, 0.13% active; S. cerevisiae UUG-firefly luciferase reporter, luminescence/redox ratio;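 active means replicate mean at a twofold rise or more, about +100% in these data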;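 further: firefly luciferase made from a UUG start codon reports start codon fidelity; reporter light over untreated wells divided by growth signal over untreated wells; some hits fall short of that in this replicate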
# RAD54 branch = RAD54 (human) branch migration inhibition. Q92698. RAD54 Holliday junction branch migration, FAM/BHQ fluorescence. inhibition, % at 10.4 µM. 360,000 compounds, 0.14% hits;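 active = mean normalized replicate activity at least 40 and at least half of replicates scoring 40 or more; inconclusive = only one of the two criteria met; inactive = mean below 40 and under half of replicates reaching 40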;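 also: 0% = median of neutral control wells and 100% = median of positive control wells; inhibitors cause a drop in the FAM fluorescence signal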
# XiGFP reactiv = activators of X-chromosome reactivation in mouse fibroblasts; XiGFP mouse fibroblasts, % GFP-positive cells imaging, 3 d; cells co-treated with 5-aza-dC sensitizer; scaled so ellipticine positive control = 100%; activation, % at 7.58 µM; 360,000 compounds, 0.055% hits; AID 743238;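 active = mean normalized replicate activation at least 10% and every replicate at or above 10%; inconclusive = only one of the two criteria met; inactive = mean below 10% and not all replicates reach 10%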;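 also: 0% = median of on-plate neutral control wells and 100% = ellipticine 6 µM median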
#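 assay system = SV40-immortalized XiGFP fibroblast cells, line 68-5-11 | buffer or medium = DMEM plus 5-aza-dC sensitizer | doses = single-point pinned compound dosing | times = 3-day compound exposure, then 15 min fixation at room temperature | benchmarks = positive control ellipticine, 6 µM final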
# E-selectin induc = induces E-selectin expression in human endothelial cells; P16581; 260,000 compounds, 0.37% hits; activation, % at 7.58 µM; HUVEC E-selectin immunofluorescence imaging; normalized: neutral wells 0, TNF-alpha wells 100;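 active = mean E-selectin-positive cell signal at least 10% of the positive control, reached in at least 60% of replicates, without over 20% cell loss; inconclusive = no rule given, readout overlaps actives, possibly toxicity-flagged; inactive = the rest, including those meeting only one limit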
#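 Read-out basis: % PE-positive cells; Test system: HUVEC primary endothelial cells; Technique: immunofluorescence imaging; Dosing: single-point compound dose.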
# RAD52 DNA ctr = binds DNA, flagging false RAD52 inhibitor hits; Salmon sperm DNA/acridine orange FP displacement, DNA binding; shares compounds with RAD52 inh; AID 652128; AC50, µM; 1,000 compounds, 8% hits;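 active = fitted half-maximal concentration for signal loss at or below twice the highest dose tested, in every separate run, actives reach about 64 µM in these data; inconclusive = runs disagree, or flat partial signal loss, or poor fit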
# * = called active by the depositor; i = inactive; ? = inconclusive; · = no result given.
SMILES	RAD52 inh	Yeast UUG start	RAD54 branch	XiGFP reactiv	E-selectin induc	RAD52 DNA ctr
Cc1ccc(NCCCn2cnc(C(=O)Nc3ccc(C)c(C)c3)n2)cc1C	4.2	-6.8	-25.2	0.1	·	·
Cc1cc(C)c(CN2CCN(CCCn3cnc(C(=O)Nc4ccc(C)c(C)c4)n3)CC2)c(C)c1	55.8*	-17.2	4.6	0.1	0.0	i
CO[C@H]1CN(C)C(=O)c2ccc(NC(C)=O)cc2OC[C@@H](C)N(C(=O)c2ccccc2F)C[C@@H]1C	·	·	10.5	0.0	0.3	·
Cc1cc(C)n(-c2nc(NCCN(C)C)c3c4c(sc3n2)CCCC4)n1	83.2*	·	·	0.3	-2.4	i
CNC[C@@H]1Oc2ccc(NC(=O)Nc3ccc(F)cc3)cc2C(=O)N([C@H](C)CO)C[C@@H]1C	-15.6	-1.3	2.9	-0.1	0.0	·
CCCN1C(=O)/C(=C/c2ccc(C)s2)SC1=Nc1ccc(OC)cc1	·	-12.4	-16.2	·	·	·
COc1ccc(N=C2S/C(=C\c3ccc(Cl)c([N+](=O)[O-])c3)C(=O)N2CCN(C)C)cc1	53.5*	9.1	24.4	1.2	0.3	i
CCN(CC)CCN1C(=O)/C(=C\c2ccc(Cl)c([N+](=O)[O-])c2)SC1=Nc1ccc(OC)cc1	80.3*	-3.3	6.7	0.0	-0.3	i
C/C=C/c1cnc2c(c1)C(=O)N([C@H](C)CO)C[C@@H](C)[C@H](CN(C)Cc1ccc3c(c1)OCO3)O2	·	·	·	-1.4	0.8	·
C[C@H](CO)N1C[C@H](C)[C@H](CN(C)S(=O)(=O)c2ccc(Cl)cc2)OCCCC[C@H](C)Oc2ccc(NC(=O)Nc3cccc4ccccc34)cc2C1=O	5.2	-0.7	8.5	0.4	1.3	·
CN(C)C(=O)c1cccc(-c2cnc3c(NC=O)cc(-c4cccc(C(F)(F)F)c4)cn23)c1	-30.4	-13.2	11.8	0.1	-0.5	·
CN(C)CCNC(=O)c1cccc(-c2cc(NC=O)c3ncc(-c4cccc(C(F)(F)F)c4)n3c2)c1	73.7*	-2.6	35.4	0.5	-0.1	i
CN(C)C(=O)c1cccc(-c2cnc3c(NC=O)cc(-c4cccc(F)c4)cn23)c1	-14.9	-7.3	-2.6	0.1	-0.5	·
CN(C)CCNC(=O)c1cccc(-c2cnc3c(NC=O)cc(-c4cc(F)c(F)c(F)c4)cn23)c1	66.6*	-3.1	33.8	0.1	-0.5	i
O=C1c2cccc(NCCNCCO)c2C(=O)c2cccc(NCCNCCO)c21	63.2*	·	·	-0.1	21.3	4.04µM*
CN(c1cc2c(c3c1ccn3C)C1CCC2C1)C1CCCCC1 (stereo unspecified)	9.2	-2.8	1.7	0.2	-0.1	·
CN(CCc1ccccc1)c1cc2c(c3c1ccn3C)C1CCC2C1 (stereo unspecified)	63.9*	-2.7	5.0	·	-1.4	i
CN(Cc1ccccc1)c1cc2c(c3c1ccn3C)C1CCC2C1 (stereo unspecified)	58.2*	-9.7	-13.4	0.0	0.0	i
CCN(C)c1cc2c(c3c1ccn3C)C1CCC2C1 (stereo unspecified)	69.8*	0.9	9.3	0.0	0.1	i
Cc1ccccc1-c1cc2c(c3c1ccn3C)C1CCC2C1 (stereo unspecified)	-15.3	-14.2	0.2	0.1	-0.1	·
C[C@@H]1CN([C@H](C)CO)C(=O)c2cc(-c3ccncc3)cnc2O[C@H]1CN(C)C(=O)Nc1ccc2c(c1)OCO2	-7.5	19.9	0.5	-0.7	-0.2	·
Cc1c(C)n(Cc2ccccc2)c2ccc(C(=O)NCCN3CCOCC3)cc12	15.8	-2.0	-11.4	0.2	3.3	·
Cc1c(C)n(Cc2ccccc2)c2ccc(C(=O)OCCN(C)C)cc12	65.9*	-3.6	30.9	0.0	·	i
CC(C)NC(=O)Nc1ccc2c(c1)CC(=O)N([C@H](C)CO)C[C@@H](C)[C@@H](CN(C)Cc1ccc3c(c1)OCO3)O2	0.5	·	2.0	0.2	25.7	·
Cc1cccn2c(=O)c3cc(C(=O)NC(C)c4ccccc4)c(=N)n(CCCn4ccnc4)c3nc12 (stereo unspecified)	68.4*	·	·	·	0.4	i
Cc1ccc2nc3c(cc(C(=O)NCc4ccccc4)c(=N)n3CCCn3ccnc3)c(=O)n2c1	-256.5	-18.4	27.1	-0.1	1.8	·
COCCCn1c(=N)c(C(N)=S)cc2c(=O)n3cccc(C)c3nc21	34.3	-9.0	29.6	0.3	·	·
Cc1cccn2c(=O)c3cc(C(N)=S)c(=N)n(CCCN4CCOCC4)c3nc12	86.2*	·	·	0.0	3.3	i
O=C(C[C@H]1C=C[C@H](NS(=O)(=O)c2cccc(F)c2)[C@@H](CO)O1)N1CCCCC1	-22.9	-5.1	-5.5	0.4	0.8	·
CCCCCCCC[n+]1cccc(C(=O)N(CC)CC)c1	3.0	·	·	0.2	·	·

# For convenience, part of the list above:
SMILES	RAD52 inh	Yeast UUG start	RAD54 branch	XiGFP reactiv	E-selectin induc	RAD52 DNA ctr
CN(c1cc2c(c3c1ccn3C)C1CCC2C1)C1CCCCC1 (stereo unspecified)	9.2	-2.8	1.7	0.2	-0.1	·
CN(CCc1ccccc1)c1cc2c(c3c1ccn3C)C1CCC2C1 (stereo unspecified)	63.9*	-2.7	5.0	·	-1.4	i
CN(Cc1ccccc1)c1cc2c(c3c1ccn3C)C1CCC2C1 (stereo unspecified)	58.2*	-9.7	-13.4	0.0	0.0	i

# Further structures follow:
SMILES	RAD52 inh	Yeast UUG start	RAD54 branch	XiGFP reactiv	E-selectin induc	RAD52 DNA ctr
CCCCCCCCCCCCCCCC[n+]1cccc(C(=O)N(CC)CC)c1	87.9*	25.2	40.1	0.4	1.7	i
COc1cc(CNC(C)(C)CO)cc(Br)c1OCc1ccc(Cl)cc1Cl	55.5*	·	·	0.1	·	i
CC(C)CC#Cc1cnc2c(c1)C(=O)N([C@@H](C)CO)C[C@H](C)[C@@H](CN(C)Cc1cccc(F)c1)O2	0.6	24.7	10.8	0.0	0.4	·
NC(c1ccccc1)c1csc(Nc2ccc(C(=O)NCCO)cc2)n1 (stereo unspecified)	21.3	-13.6	8.9	0.0	0.1	·
NC(c1ccccc1)c1csc(Nc2ccc(C(=O)c3ccccc3)cc2)n1 (stereo unspecified)	61.6*	-16.5	-12.2	0.2	0.0	i
CC(=O)c1ccc(Nc2nc(C(N)Cc3ccc(N)cc3)cs2)cc1 (stereo unspecified)	87.0*	-10.6	7.9	0.0	-0.1	i
CC(C)NC(=O)N(C)C[C@@H]1Oc2ncc(C#CC3CCCC3)cc2C(=O)N([C@H](C)CO)C[C@H]1C	4.4	3.1	-2.8	-0.6	2.8	·
CCCS(=O)(=O)Nc1ccc(Nc2c3ccccc3nc3ccccc23)c(OC)c1	64.0*	·	·	0.4	0.1	?
COc1ccc(Nc2c3c(nc4ccccc24)CCC3)c(OC)c1	19.3	-15.7	17.7	0.0	-0.4	·
O=C(Cc1ccccn1)NCC[C@@H]1CC[C@@H](NS(=O)(=O)c2ccccc2)[C@@H](CO)O1	-11.9	12.7	-2.3	0.3	-0.3	·
C[C@H](c1ccccc1)N1C[C@@H](COCc2ccccc2)Oc2cc(N3CC[C@H](N(C)C)C3)ccc2S1(=O)=O	50.7*	·	·	0.1	0.4	i
COc1cc2c(cc1OC)C(c1ccccc1N)=NCC2	61.3*	-0.4	25.9	0.8	0.0	i
COc1cc2c(cc1OC)C(c1ccccc1)=NCC2	-5.7	1.3	-1.3	0.0	-0.8	·
CN(C)CCNC(=O)c1cccc2[nH]c(-c3ccncc3)nc12	50.4*	·	·	0.2	0.0	51.8µM*
COc1ccc(-c2nc3c(C(=O)NCCN(C)C)cccc3c3ccccc23)cc1	100.5*	·	·	0.0	0.5	?

# Reformatted: results already given.
# Values run as follows: RAD52 inh	Yeast UUG start	RAD54 branch	XiGFP reactiv	E-selectin induc	RAD52 DNA ctr
CCCS(=O)(=O)Nc1ccc(Nc2c3ccccc3nc3ccccc23)c(OC)c1
 : 64.0*	·	·	0.4	0.1	?
CN(C)C(=O)c1cccc(-c2cnc3c(NC=O)cc(-c4cccc(C(F)(F)F)c4)cn23)c1
 : -30.4	-13.2	11.8	0.1	-0.5	·

# Source: PubChem
